{
  "source": "patent US12685742B2",
  "about": "“Application of stachyose in preparation of drug for treating castration-resistant prostate cancer” (priority 2021, dated 2026)",
  "test_system": "AR",
  "test": "AR immunohistochemistry of prostate tissue slices, C-MYC-over-expressed prostate cancer mouse model",
  "type": "in vivo, mice",
  "details": "30 d after drug tolerance relapse, immunohistochemical positive cells",
  "from_the_text": "Then, the necks of some mice were severed, and the prostate cancers of the mice were taken, photographed and weighed. […] Then, the necks of the mice were severed, and the prostate cancers of the mice were taken, photographed, weighed and subjected to experiments including immunohistochemistry.",
  "data": [
    {"smiles": "CNC(=O)c1ccc(N2C(=S)N(c3ccc(C#N)c(C(F)(F)F)c3)C(=O)C2(C)C)cc1F", "note": "[Enza, Enzalutamide]", "values": [
      {"measurement": "AR expression/%", "setting": "Enza 10 mg/Kg", "value": 89.4, "unit": "%"},
      {"measurement": "AR expression/%", "setting": "Enza 90 mg/Kg", "value": 82.6, "unit": "%"}
    ]}
  ]
}
